The test has as its target 5-hydroxytryptamine receptor 1A (Rattus norvegicus, UniProt P19327).

The chains behind the UniProt entries cited, without tags or fusion partners.
UniProt P19327, whole entry: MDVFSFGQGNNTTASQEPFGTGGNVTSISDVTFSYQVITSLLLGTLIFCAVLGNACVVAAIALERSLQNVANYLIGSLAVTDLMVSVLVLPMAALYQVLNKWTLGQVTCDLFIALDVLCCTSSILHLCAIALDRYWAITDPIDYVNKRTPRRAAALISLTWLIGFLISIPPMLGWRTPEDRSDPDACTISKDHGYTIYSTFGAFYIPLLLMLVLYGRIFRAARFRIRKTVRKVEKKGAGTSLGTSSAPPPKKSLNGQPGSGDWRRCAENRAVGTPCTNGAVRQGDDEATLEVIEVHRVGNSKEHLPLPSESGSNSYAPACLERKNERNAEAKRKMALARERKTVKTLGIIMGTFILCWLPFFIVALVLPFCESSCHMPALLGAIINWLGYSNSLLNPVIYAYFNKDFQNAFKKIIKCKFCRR

The structures appear in SMILES notation. pIC50: −log10 of the molar value.

The pIC50 is the negative decadic logarithm of the IC50, by convention in mol/L. As for `CCOC(=O)Nc1ccccc1C(=O)NCCCCN1CCN(c2nsc3ccccc23)CC1.Cl`, the pIC50 is 8.25.

Source of the values: ChEMBL document CHEMBL1129740, “Structure-activity relationships of a series of substituted benzamides: potent D2/5-HT2 antagonists and 5-HT1a agonists as neuroleptic agents” (J Med Chem, 1996).
